FP activity change, negative = inhibition data for 21 compounds are collected here from PubChem BioAssay AID1768 (National Center for Advancing Translational Sciences (NCATS), 2009).

The chains behind the UniProt entries cited, without tags or fusion partners.
UniProt O00255, whole entry: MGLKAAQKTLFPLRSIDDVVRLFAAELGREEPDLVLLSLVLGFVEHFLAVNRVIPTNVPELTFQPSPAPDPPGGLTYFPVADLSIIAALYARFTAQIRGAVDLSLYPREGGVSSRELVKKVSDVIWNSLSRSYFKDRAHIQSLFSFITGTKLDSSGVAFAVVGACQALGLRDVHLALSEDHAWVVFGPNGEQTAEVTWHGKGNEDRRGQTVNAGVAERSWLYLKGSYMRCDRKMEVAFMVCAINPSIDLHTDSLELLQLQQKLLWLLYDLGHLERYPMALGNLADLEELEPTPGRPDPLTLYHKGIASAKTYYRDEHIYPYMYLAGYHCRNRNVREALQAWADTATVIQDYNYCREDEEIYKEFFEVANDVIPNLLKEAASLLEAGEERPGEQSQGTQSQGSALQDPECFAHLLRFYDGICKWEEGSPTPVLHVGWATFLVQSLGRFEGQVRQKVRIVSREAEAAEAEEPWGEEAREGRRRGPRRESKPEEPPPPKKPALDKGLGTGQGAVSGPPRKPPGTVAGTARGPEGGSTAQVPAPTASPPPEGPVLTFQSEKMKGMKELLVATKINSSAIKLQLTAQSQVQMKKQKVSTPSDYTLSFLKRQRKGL
UniProt Q03164, whole entry partner: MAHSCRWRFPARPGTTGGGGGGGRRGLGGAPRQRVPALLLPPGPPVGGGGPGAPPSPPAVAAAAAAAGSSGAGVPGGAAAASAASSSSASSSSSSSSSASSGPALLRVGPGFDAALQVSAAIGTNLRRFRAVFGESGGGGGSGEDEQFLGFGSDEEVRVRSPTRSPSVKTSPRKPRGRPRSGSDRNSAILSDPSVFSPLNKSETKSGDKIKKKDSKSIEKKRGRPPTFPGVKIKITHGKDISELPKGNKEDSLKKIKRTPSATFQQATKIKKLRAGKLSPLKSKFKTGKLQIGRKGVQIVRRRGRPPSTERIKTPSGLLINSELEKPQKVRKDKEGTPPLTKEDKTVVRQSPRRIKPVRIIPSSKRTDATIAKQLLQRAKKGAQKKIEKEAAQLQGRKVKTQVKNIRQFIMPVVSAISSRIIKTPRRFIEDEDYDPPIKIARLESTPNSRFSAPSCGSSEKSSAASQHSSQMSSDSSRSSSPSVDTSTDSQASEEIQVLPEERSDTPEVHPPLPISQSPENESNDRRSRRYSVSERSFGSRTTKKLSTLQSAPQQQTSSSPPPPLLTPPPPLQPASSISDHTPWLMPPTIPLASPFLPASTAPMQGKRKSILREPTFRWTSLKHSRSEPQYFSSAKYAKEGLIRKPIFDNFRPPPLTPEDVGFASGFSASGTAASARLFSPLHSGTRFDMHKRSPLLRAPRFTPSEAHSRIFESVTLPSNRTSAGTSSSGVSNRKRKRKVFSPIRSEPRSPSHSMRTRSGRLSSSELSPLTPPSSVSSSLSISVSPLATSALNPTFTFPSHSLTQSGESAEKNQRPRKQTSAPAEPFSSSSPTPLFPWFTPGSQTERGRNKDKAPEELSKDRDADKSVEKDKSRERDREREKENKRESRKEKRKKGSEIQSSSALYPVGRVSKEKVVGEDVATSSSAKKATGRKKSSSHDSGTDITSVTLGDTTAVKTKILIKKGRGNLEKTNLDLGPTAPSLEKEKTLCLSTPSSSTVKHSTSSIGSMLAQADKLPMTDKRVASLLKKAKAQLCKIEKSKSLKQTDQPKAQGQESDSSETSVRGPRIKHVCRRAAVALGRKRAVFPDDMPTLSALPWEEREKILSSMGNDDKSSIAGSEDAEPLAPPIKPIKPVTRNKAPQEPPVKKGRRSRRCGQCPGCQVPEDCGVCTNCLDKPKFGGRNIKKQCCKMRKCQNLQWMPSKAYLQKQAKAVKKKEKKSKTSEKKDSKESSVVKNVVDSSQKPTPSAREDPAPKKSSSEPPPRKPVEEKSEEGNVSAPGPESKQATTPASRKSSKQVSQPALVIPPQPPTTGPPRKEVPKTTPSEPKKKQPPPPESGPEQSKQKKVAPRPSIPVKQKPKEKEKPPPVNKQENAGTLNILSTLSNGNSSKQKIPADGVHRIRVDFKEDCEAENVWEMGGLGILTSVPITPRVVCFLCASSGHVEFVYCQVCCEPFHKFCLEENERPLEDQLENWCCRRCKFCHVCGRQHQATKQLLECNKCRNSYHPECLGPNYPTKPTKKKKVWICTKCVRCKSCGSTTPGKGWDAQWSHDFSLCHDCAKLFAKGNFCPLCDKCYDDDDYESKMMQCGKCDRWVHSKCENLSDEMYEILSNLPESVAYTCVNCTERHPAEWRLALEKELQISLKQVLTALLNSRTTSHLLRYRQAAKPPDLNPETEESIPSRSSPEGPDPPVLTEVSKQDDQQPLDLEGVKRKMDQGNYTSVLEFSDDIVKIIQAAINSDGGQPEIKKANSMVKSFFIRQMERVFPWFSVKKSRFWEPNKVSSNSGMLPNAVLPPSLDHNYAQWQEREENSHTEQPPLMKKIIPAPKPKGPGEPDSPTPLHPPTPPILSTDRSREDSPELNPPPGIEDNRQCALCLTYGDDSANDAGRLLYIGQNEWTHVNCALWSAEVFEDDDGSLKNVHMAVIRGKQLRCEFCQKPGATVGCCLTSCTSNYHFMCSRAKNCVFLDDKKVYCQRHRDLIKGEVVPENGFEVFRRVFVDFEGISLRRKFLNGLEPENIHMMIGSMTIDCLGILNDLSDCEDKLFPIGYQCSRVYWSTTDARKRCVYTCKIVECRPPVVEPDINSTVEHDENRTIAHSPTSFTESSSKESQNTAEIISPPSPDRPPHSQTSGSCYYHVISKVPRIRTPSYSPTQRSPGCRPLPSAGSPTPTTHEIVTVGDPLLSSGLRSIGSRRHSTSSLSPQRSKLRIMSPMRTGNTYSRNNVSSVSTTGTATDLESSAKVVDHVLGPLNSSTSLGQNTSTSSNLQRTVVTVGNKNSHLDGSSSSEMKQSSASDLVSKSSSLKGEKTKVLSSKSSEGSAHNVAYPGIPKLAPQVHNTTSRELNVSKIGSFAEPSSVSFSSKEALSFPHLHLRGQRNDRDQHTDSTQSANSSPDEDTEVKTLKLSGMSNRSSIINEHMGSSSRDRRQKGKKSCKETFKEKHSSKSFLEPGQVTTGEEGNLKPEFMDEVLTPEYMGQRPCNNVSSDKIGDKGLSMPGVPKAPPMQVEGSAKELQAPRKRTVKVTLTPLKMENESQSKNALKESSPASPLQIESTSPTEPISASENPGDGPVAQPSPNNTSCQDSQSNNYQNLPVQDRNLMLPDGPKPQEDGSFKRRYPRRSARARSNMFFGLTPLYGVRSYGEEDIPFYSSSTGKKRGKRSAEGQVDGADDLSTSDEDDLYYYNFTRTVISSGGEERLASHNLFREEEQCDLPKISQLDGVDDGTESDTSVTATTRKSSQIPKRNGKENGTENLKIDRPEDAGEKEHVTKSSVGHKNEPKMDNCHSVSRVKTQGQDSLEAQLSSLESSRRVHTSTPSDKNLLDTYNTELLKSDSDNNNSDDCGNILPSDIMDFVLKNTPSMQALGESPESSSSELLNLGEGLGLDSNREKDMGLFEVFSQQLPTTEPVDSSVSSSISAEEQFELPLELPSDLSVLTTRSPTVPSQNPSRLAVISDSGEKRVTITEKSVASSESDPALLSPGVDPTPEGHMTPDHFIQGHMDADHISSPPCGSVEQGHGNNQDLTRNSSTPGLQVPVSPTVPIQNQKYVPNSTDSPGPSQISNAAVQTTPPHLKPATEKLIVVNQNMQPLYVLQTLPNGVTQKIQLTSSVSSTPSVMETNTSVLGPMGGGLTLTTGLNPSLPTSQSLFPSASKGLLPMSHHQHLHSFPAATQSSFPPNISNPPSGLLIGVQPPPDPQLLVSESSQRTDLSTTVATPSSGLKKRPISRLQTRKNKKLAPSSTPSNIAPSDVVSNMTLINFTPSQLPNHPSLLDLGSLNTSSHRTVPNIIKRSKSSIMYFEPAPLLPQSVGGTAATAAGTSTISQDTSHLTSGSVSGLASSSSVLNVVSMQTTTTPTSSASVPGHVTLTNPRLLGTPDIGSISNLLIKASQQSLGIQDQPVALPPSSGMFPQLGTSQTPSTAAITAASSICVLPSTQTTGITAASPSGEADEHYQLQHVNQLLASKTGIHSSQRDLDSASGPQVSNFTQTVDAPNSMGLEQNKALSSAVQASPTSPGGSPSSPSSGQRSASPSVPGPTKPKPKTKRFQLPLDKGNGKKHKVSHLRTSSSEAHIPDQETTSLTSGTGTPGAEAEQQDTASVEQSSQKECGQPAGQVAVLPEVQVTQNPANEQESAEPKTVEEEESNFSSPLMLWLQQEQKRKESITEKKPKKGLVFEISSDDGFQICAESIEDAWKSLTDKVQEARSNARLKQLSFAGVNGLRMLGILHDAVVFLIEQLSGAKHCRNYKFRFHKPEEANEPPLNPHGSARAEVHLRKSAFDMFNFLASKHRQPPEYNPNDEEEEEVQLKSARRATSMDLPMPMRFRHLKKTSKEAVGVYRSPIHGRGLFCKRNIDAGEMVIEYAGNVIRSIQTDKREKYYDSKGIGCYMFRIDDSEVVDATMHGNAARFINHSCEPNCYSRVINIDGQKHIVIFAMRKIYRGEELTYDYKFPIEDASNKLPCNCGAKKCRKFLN

Molecules are shown by their SMILES. Only a part is listed here, and it is no random draw. Some results for these compounds are left out of this collection, so the calls shown say nothing about other tests. Inconclusive results are not listed. The source made the active and inactive calls. Calls come from the whole dose curve; as a rule, active = well fitted inhibition curve with a large enough effect in the polarisation, with a control signal flat (not every such curve was filed as active); inconclusive = small, poorly fitted or top-dose-only effect, or effect the other way, or a change in a side signal; inactive = no such curve, though single readings can be large or run the other way; the % refers to the polarisation.

This assay addresses Menin (Homo sapiens) (UniProt O00255). The assay can be described thus: qHTS Assay for Inhibitors Targeting the Menin-MLL Interaction in MLL Related Leukemias: Competition With Texas Red Labeled MLL-derived Mutant Peptide. Note: % of control where 0% means no effect. The following applies: fluorescence polarization; at 61.6 µM (top of the series). (Quantitative high-throughput screening tests each substance at several concentrations.)
As for `O=C(NCC1(N2CCCCC2)CCCCC1)c1cc(F)c(F)cc1Cl`, the FP activity change, negative = inhibition was inactive: -9.13%. With `C=CCN1CCN(CCOC(=O)C(O)(c2ccccc2)c2ccccc2)CC1`, the FP activity change, negative = inhibition is inactive: -0.292%. To `COc1ccc(C(=O)NCC2(N(C)C)CCCCC2)cc1` belongs inactive: -5.04%; to `O=C(NCC1(N2CCCCC2)CCCCC1)c1cccc(Br)c1`, inactive: -15.1%; to `Cc1cc(C(=O)NCC2(N3CCCCC3)CCCCC2)ccc1[N+](=O)[O-]`, inactive: 1.98%. To `CCN1CCCC(OC(=O)C2(O)c3ccccc3C=Cc3ccccc32)C1` (stereo unspecified) belongs inactive: -7.54%; to `CN(C)C1CCCC1OC(=O)C(O)(c1ccccc1)c1ccccc1` (stereo unspecified), inactive: 25.7%.

As to `CN(C)c1ccc(C(=O)NCC2(N(C)C)CCCCC2)cc1`, the FP activity change, negative = inhibition is inactive: -12.5%. To `Cc1ccccc1C(=O)NCC1(N2CCCCC2)CCCCC1` belongs inactive: -3.56%. To `CN1CCCC(OC(=O)C(O)(c2ccccc2)c2ccccc2)C1` (stereo unspecified) belongs inactive: 7.56%; to `COc1cc(SC)ccc1C(=O)NCC1(N(C)C)CCCCC1`, inactive: 1.98%; to `O=C(NCC1(N2CCCCC2)CCCCC1)c1cc([N+](=O)[O-])ccc1Cl`, inactive: -4.75%. To `CN1[C@@H]2CC[C@H]1CC(OC(=O)C(O)(c1ccccc1)c1ccccc1)C2` (stereo partly specified) belongs inactive: -7.85%. `CC(C)Oc1ccc(C(=O)NCC2(N(C)C)CCCCC2)cc1`: the FP activity change, negative = inhibition was inactive: 1.38%.

Regarding `CN(C)c1cccc(C(=O)NCC2(N(C)C)CCCCC2)c1`, the FP activity change, negative = inhibition was inactive: 17.3%. To `O=C(OC1CN2CCC1CC2)C(CO)(c1ccccc1)c1ccccc1` (stereo unspecified) belongs inactive: 1.41%. In the case of `COc1ccc(Cl)cc1C(=O)NCC1(N(C)C)CCCCC1`, the FP activity change, negative = inhibition was inactive: -13.3%. To `COc1cccc(C(=O)NCC2(N3CCCCC3)CCCCC2)c1` belongs inactive: -15.4%; to `O=C(NCC1(N2CCCCC2)CCCCC1)c1cccc(Cl)c1`, inactive: -14%. To `CN(C)C1(CNC(=O)c2ccc(Br)cc2)CCCCC1` belongs inactive: -12%; to `COc1cc(C(=O)NCC2(N(C)C)CCCCC2)c([N+](=O)[O-])cc1OC`, inactive: -18.8%.
